Columns and labels:
[1] = tested on: Mus musculus; experiment: Antinociceptive activity in ICR mouse assessed as thermal-stimulus induced tail flick latency at 1 to 10 mg/kg, sc measured up to 4 hrs relative to control; details: dose mg/kg 1-10, route subcutaneous, strain ICR
[2] = target: Kappa-type opioid receptor (Homo sapiens, UniProt P41145); experiment: Agonist activity at human kappa opioid receptor transfected in CHO cell membranes assessed as stimulation of [35S]GTPgammaS binding after 60 mins by scintillation counting analysis

Protein sequences, listed by entry. Tags and fused reporters are not part of them.
UniProt P41145, whole entry: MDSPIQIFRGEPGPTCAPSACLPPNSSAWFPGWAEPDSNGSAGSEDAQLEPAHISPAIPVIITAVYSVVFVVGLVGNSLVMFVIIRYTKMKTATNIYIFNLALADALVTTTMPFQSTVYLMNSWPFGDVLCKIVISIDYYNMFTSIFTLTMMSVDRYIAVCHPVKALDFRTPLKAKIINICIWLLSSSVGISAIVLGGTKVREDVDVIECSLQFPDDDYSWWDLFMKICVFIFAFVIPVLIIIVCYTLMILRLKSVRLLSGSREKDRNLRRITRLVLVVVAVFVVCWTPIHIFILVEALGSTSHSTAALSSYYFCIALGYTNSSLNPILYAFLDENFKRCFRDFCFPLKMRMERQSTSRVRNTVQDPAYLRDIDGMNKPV

Row | SMILES | MPE [1] [%] | EC50 [2] [µM]
1 | CCC1C(=O)N(C2CCN([C@H]3CC[C@@H]4CCCc5cccc3c54)CC2)c2ccccc21 (mixture of isomers) | 30 | –
2 | CCC1C(=O)N(C2CCN(C3CCc4ccccc4C3)CC2)c2ccccc21 (centres undefined) | – | 0.153
3 | CCC1C(=O)N(C2CCN(CCC(c3ccccc3)c3ccccc3)CC2)c2ccccc21 (centres undefined) | – | > 10
4 | CCC1C(=O)N(C2CCN(Cc3cccc4[nH]ccc34)CC2)c2ccccc21 (centres undefined) | – | > 10

Source: ChEMBL document CHEMBL3259735, “Designing bifunctional NOP receptor-mu opioid receptor ligands from NOP-receptor selective scaffolds. Part II” (Bioorg Med Chem, 2014)
